Measured values from patent publication US20240358829A1, “Lymphocyte Population and Methods for Producing Same” (AVM Biotechnology, LLC, priority 2021, published 2024).

System: MOPC315 Multiple Myeloma cells
Details: not statistically significant

Compound: C[C@@H]1C[C@H]2[C@@H]3CCC4=CC(=O)C=C[C@]4(C)[C@@]3(F)[C@@H](O)C[C@]2(C)[C@@]1(O)C(=O)COP(=O)(O)O [AVM0703, dexamethasone sodium phosphate]
- live MOPC315 in blood and bone marrow (AVM0703 preconditioning followed by ACT): trends of reduced live MOPC315
- live MOPC315 cells (preconditioning with 18 mg/kg HED AVM0703 followed by ACT of cells from placebo treated mice): trends towards reduced live MOPC315 cells
